Apparent affinities of Ab-14 variants for a coronavirus HR2 peptide

From the AlphaSeq antibody data of Engelhart et al. 2022 (doi:10.1038/s41597-022-01779-4), copy in the FLAb collection.

Target: peptide PDVDLGDISGINAS, taken from heptad repeat 2 (HR2) of SARS-CoV-2 spike.

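Phage display of a naive human antibody library on the peptide gave the parent. Variants in AAYL49 differ from the parent at up to three CDR positions; double and triple changes were sampled at random. The scFvs were displayed on barcoded MATa yeast, the peptide on MATalpha yeast. After mating in shaken culture at 30 °C for 16 h, diploids were selected and their barcode pairs sequenced. Scores were corrected for input abundance and mapped to Kd with protein pairs of known affinity run in the same pool. Each pool was mated in three replicate cultures.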

Parent: Ab-14, a human scFv built as VH, the linker GGGGSGGGGSGGGGS, VL. Only the CDRs of the heavy chain vary.
VH: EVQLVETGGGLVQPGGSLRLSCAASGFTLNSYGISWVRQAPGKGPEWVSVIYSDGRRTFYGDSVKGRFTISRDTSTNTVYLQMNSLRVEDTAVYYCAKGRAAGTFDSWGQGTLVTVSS
VL: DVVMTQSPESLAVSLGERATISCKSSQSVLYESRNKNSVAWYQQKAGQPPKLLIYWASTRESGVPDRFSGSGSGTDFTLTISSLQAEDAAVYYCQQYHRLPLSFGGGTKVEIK

Variants are written as CDR1, CDR2 and CDR3 of the heavy chain (limits as in the source). Parent: GFTLNSYGIS, VIYSDGRRTFYGDSVK, GRAAGTFDS. Values are log10 of the apparent Kd in nM; lower means stronger binding. A mean of the replicates is given; it leaves out those without a signal. "not detected" marks a missing value. The strain was present, yet no cells mated with the target were sequenced in any replicate, which points to weak or no binding. Parent in this assay: reference entry 0.65, copy in this library 4.11 (one replicate of three).

CDR-H1	CDR-H2	CDR-H3	log10 Kd (nM), mean	detected
CFTLNSYGIS	VIYSDGRRTFYGDAVK	GRIAGTFDS	1.45	3/3
GFTYNIYGIS	VIYSDGRRTFYGDSVK	GRAAFTFDS	not detected	0/3
GFTLNSYGIS	VIYSDGSRTFYGDSVT	GRAAGTFDS	2.85	2/3
GFTLNSYGIS	VIYSDGRRTFYGDSMK	GRAHGTFDR	3.08	3/3
GFTLNSYGIS	VDYSDGRRTFYGDSVK	GRAACEFDS	not detected	0/3
GFTLNSYWIS	VIYSDGRVTFYGDSVK	RRAAGTFDS	4.24	1/3
GFTLNSYGGS	VIYSDGRRTFEGDSVK	GRAAMTFDS	5.31	1/3
MFTLNSYGIS	VIYSDGRRRFYGDSVK	GRAAGTFDS	not detected	0/3
GFTLNSYGIS	VIYSDGRRTAYGKGVK	GRAAGTFDS	not detected	0/3
GFTLNSFGIT	VIYSDGRRCFYGDSVK	GRAAGTFDS	not detected	0/3
GFTLNSYGIS	VIYSDGRRTFYGDSVH	NRAAGMFDS	1.45	3/3
KFTLNSYEIS	VIYSDGRRTFYGDSSK	GRAAGTFDS	not detected	0/3
GFTLNSYGIS	VIYSDGRRTYYGDSVT	GRAAGTFCS	2.27	3/3
GFTLNSYGIS	VIYSDGRRWFYGDSGD	GRAAGTFDS	not detected	0/3
GFTVNSYGIS	VIYMDGRRTFYGDSVK	GRAAGTFDQ	not detected	0/3
GFTLNSYAIS	VIYSDGVRLFYGDSVK	GRAAGTFDS	not detected	0/3
GFTLNSWGIS	VIYSDGRRTSYGDSVK	GRAAGTFDR	not detected	0/3
GFTLNSYAIS	VIYSDGRKTFYGDSVK	GRAVGTFDS	4.32	2/3
GFPLNSYGIS	VIYSDGRRTFYGDSVK	GRAVGLFDS	4.82	3/3
GFTLNSYGIS	VIYSDGRRQFYGDSVK	GRMAGRFDS	not detected	0/3
GFTLNSYGIS	VIYSDGCVTFYGDSVK	GYAAGTFDS	not detected	0/3
GFTLNSYGIS	GIYSDGRRTFYGDSVK	GRAACTFIS	4.68	1/3
GFQLNSYGII	VIYSDGRRTFYGDSLK	GRAAGTFDS	3.69	1/3
GFTLNSHGIS	VIYSDGRRTFYGDSVK	GRAANVFDS	not detected	0/3
GFTLNSYGIC	VIYSDGRRLFYGDSVK	GRAAGTFDW	not detected	0/3
GFTMNSYGIS	VIYSDGRRTLYGDSVK	GRAAGQFDS	not detected	0/3
GFTLNSYGIL	VIYSDDRRTFYGDSKK	GRAAGTFDS	not detected	0/3
GFTLNSYGIS	VIYSDGRRTVYGDSVK	GRAAAVFDS	2.75	3/3
GFTLNRYGIS	PIYSDGRRTFPGDSVK	GRAAGTFDS	not detected	0/3
CFTLNSYGIS	VIYSDGRRTFRGDSVK	GRAAGTFTS	not detected	0/3
GCTHNSYGIS	VIYSDGRRTFVGDSVK	GRAAGTFDS	not detected	0/3
GFTLISYGIS	VIYSDGRRWFYGDSVK	GRAAGTFDF	not detected	0/3
GFTNNSYGIS	VIYSDGRRTFYGDSRK	GRAIGTFDS	not detected	0/3
HFTLNSYGIS	VIYSDGRRTFYGDSVH	GMAAGTFDS	not detected	0/3
GFTLKSYGIS	VIYSDGRHTFYGDSSK	GRAAGTFDS	3.51	1/3
GFTLNSYGIS	VIWSPGRRTFYGDSVK	GRAAGTFDS	4.19	1/3
GFTLNSYGIS	VIYSDGRRWFYGDSVK	TRAADTFDS	4.79	1/3
GSTLNSYEIS	VVYSDGRRTFYGDSVK	GRAAGTFDS	5.20	2/3
GFTLNSYFIS	VIYSDGRPTFYGDGVK	GRAAGTFDS	4.75	2/3
GFTLCSYGIS	VIYSDGRRTFYKDSVK	KRAAGTFDS	not detected	0/3
GFTENSYGIS	VIYSDGRRTFYGDSVK	GRAAGTRRS	4.17	1/3
GFTLNSYGIS	VIYSDGRRTVYGDSVK	GRAFGAFDS	not detected	0/3
GFTLNSYNIS	VIYSDGRRTFYGDSCK	GRAACTFDS	5.21	3/3
GFTLNSYGIS	VIYSDGRRGFYGDSVK	TRAAGQFDS	not detected	0/3
GFTLNSYGIS	VIYFDGRRTWYGDSVK	GRRAGTFDS	2.50	2/3
GFTLNSYGIS	VIGSDGRRTFYGDDVK	GRAAGPFDS	not detected	0/3
GFTLNSYGIS	VIYSMGRRTFYGDSVK	GNQAGTFDS	not detected	0/3
GFTLNSYGIS	VIYSDGRRTFYGDSVC	GRAAGHFGS	not detected	0/3
GFTLNSYGIS	VIYPDGRRTNYGDSVK	GRAAGTFDS	not detected	0/3
GFTLNSYGIS	VIYSDGRRTRYIDSVK	GRAAGTFDA	not detected	0/3
GFTLNSNGFS	VIYSDGRRTIYGDSVK	GRAAGTFDS	not detected	0/3
GFTNNSYGIS	VIYMDGRRTFYGDSVK	GRADGTFDS	3.94	2/3
GFTLNSEGIW	VIMSDGRRTFYGDSVK	GRAAGTFDS	4.98	1/3
GFTLNSNGIS	VIYSDGRRTFYGDSVS	GRAAGTFDS	4.70	1/3
GETKNSYGIS	VIYSDGRRTFYGDSVK	GRAATTFDS	not detected	0/3
HFTLTSYGIS	VIYSDGRRTFYGDSVK	GRAKGTFDS	2.71	3/3
GFWLNSLGIS	VIYSDGRRTFYGDSVK	GRAVGTFDS	not detected	0/3
GFTLSSYGES	VIYSDGRRTFYGDSVK	GRAAGTFDS	not detected	0/3
GFTLNSYGIS	VHYSDGRRTFYGDSVK	GRAAWTFGS	not detected	0/3
GFTLNSYGIS	VIYKDGRGTFYGDSVK	GRAAMTFDS	not detected	0/3
GFRLNSYGIS	VIYWDGRRTFYGDSVK	GRAAGTFFS	not detected	0/3
GFTLWSYGIS	QIYSDGVRTFYGDSVK	GRAAGTFDS	not detected	0/3
GHTLNSYGIS	VMYSDGRRTFGGDSVK	GRAAGTFDS	not detected	0/3
GFTLNSYGIS	VIYSDGRPTAYGDSVL	GRAAGTFDS	4.50	3/3
GFTRNSYGIF	VIYSDFRRTFYGDSVK	GRAAGTFDS	not detected	0/3
PFTLNSYGIS	VIYSDGRRTFYGDSVK	GRAAGTDDH	1.51	3/3
GRTLNSYGIS	VIYSDGRRTFYGDSVI	GRAAGTFDS	5.47	1/3
GFTNNSYGIS	VIYSDGRRTNYGDSVK	GRAAGTFDS	3.11	3/3
GFTLLSYGIS	VIYSMGRRTFYGDSVK	GRAAGTEDS	4.33	1/3
GFTLLSYGPS	VIYSDGRRTFYGDSVA	GRAAGTFDS	not detected	0/3
GFTLNMYGIS	VSYSDGRRTFYGFSVK	GRAAGTFDS	not detected	0/3
GFRLNSYGIS	VIYSDGRRTFYGDSVK	GRCAGTADS	not detected	0/3
GFTLNSYGIS	VIYSDGRRTFYWDSVK	GPAAGTFDC	3.29	1/3
GFTLNSYGIS	VIYSDGRRTFYGVSVE	GRAAETFDS	not detected	0/3
GGTLNSYGIS	VIYSDGRRTFYGDSVK	GRAAGTFDF	4.00	3/3
GFTLKSYGIS	VIYSVGRRTFYGDSVK	GRAAGTFES	not detected	0/3
GFTLNSYAIS	VIYSDGRRTFYGDSVD	GRYAGTFDS	4.70	1/3
GFTLNSDGIS	VGYSDGRRTFYGDSVD	GRAAGTFDS	2.09	1/3

The first 4 entries again:

{"CDR-H1": "CFTLNSYGIS", "CDR-H2": "VIYSDGRRTFYGDAVK", "CDR-H3": "GRIAGTFDS", "log10 Kd (nM), mean": "1.45", "detected": "3/3"}
{"CDR-H1": "GFTYNIYGIS", "CDR-H2": "VIYSDGRRTFYGDSVK", "CDR-H3": "GRAAFTFDS", "log10 Kd (nM), mean": "not detected", "detected": "0/3"}
{"CDR-H1": "GFTLNSYGIS", "CDR-H2": "VIYSDGSRTFYGDSVT", "CDR-H3": "GRAAGTFDS", "log10 Kd (nM), mean": "2.85", "detected": "2/3"}
{"CDR-H1": "GFTLNSYGIS", "CDR-H2": "VIYSDGRRTFYGDSMK", "CDR-H3": "GRAHGTFDR", "log10 Kd (nM), mean": "3.08", "detected": "3/3"}

Three control strains display no target. For library AAYL49, 15% of the pairings with them gave a signal, with a median of 4.06 and one signal in twenty below 2.83, so weak values seen in few replicates may be background.